Columns and labels:
hERG channel [1] = target: T1, hERG channel (Homo sapiens, UniProt Q12809); assay: Automated patch clamp (Nanion Patchliner) of hERG current in CHO-hERG cells with K+ solutions; format: cell-based; details: tail current at +40 mV, Hill fit, 22°C
T1 construct: host or cells: CHO cre/lox hERG

The chains behind the UniProt entries cited, without tags or fusion partners. Where a name states a change or a piece, a line headed by the entry shows the natural chain unless it says otherwise.
UniProt Q12809: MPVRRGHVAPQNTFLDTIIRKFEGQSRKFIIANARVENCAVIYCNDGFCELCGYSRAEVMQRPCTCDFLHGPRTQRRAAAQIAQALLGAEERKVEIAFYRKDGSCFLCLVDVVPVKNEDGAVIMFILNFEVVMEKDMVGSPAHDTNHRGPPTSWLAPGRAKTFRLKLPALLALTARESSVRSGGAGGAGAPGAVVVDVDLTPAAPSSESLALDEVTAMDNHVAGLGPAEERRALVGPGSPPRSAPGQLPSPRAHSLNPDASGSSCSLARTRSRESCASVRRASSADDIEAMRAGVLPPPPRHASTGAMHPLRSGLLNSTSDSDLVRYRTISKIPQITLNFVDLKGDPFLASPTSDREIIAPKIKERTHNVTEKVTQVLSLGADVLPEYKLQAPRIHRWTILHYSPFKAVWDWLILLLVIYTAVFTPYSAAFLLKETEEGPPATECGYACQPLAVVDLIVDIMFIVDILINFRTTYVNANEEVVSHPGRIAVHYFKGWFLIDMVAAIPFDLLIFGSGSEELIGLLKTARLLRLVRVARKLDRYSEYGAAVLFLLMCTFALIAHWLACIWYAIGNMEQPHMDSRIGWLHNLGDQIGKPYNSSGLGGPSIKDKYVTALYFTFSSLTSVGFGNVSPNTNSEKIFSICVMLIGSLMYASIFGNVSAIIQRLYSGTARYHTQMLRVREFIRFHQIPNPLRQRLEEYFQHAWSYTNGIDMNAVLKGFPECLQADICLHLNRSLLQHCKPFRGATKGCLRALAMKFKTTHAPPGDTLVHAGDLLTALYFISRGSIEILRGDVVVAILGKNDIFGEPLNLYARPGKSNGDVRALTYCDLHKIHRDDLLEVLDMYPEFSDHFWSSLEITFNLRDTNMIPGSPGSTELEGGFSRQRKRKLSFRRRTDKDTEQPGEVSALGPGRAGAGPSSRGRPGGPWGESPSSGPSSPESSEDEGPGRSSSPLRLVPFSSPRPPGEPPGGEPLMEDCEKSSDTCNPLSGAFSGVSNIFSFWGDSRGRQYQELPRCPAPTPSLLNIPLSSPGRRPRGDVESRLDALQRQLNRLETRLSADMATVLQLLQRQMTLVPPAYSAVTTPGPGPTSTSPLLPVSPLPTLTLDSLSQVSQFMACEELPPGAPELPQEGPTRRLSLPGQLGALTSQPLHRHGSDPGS

hERG channel [2] = target: T1, hERG channel; assay: Automated patch clamp (Nanion Patchliner) of hERG current in CHO-hERG cells with equimolar Cs+ solutions; format: cell-based; details: maximal tail current at +40 mV, Hill fit, 22°C
[3] = printed as log(IC50) with negative sign, read-out: Log(IC50) (converted)

`CNCCCN1c2ccccc2CCc2ccccc21` [Desipramine] showed an IC50 (hERG channel [1]; [3]) of 6.31 µM, an IC50 (hERG channel [1]; read-out: IC50 Conc.) of 6.9 µM and an IC50 (hERG channel [2]; read-out: IC50 Conc.) of 33.9 µM. It also gave an IC50 (hERG channel [2]; [3]) of 39.8 µM.

— PMC10847579, “Recording ten-fold larger IKr conductances with automated patch clamping using equimolar Cs^+ solutions” (Frontiers in Physiology, 2024)
